{"sequences": {"note": "Protein sequences, listed by entry. Tags and fused reporters are not part of them. Lines headed by an entry give the natural chain unless they say otherwise; changes in a name come on top.", "UniProt P41145": "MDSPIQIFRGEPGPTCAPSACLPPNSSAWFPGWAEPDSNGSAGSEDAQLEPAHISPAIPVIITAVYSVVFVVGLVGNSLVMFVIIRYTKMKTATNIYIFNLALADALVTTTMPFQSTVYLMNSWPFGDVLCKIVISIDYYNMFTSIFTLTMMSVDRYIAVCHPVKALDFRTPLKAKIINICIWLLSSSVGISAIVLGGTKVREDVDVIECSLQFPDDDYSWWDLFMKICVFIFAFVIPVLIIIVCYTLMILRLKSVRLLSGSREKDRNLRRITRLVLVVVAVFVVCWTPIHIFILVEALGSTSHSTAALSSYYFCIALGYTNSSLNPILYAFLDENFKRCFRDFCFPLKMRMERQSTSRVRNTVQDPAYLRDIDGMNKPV"}, "source": "paper PMC6117024", "about": "“NOP receptor pharmacological profile – A dynamic mass redistribution study” (PLoS ONE, 2018)", "biological_target": "kappa opioid receptor (UniProt P41145)"}
{"substance": "Dynorphin A (peptide)", "values": [{"measurement": "pEC50 of the DMR response, CHO cells expressing the kappa opioid receptor", "result": "9.39 -log10(M)"}]}
